A selection: hits, their analogues and other compounds. The true share with any hit is near 0.44%.
Rango complex inh: prevents formation of the Rango-importin beta complex | Q14974 | Rango CFP/YFP FRET sensor + importin beta, 45 min | Potency, µM (series often up to 92.2 µM), for the others: at the top dose inhibition of complex formation | actives 0.031% (n = 340,000) | AID 540263;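 also: 0% = DMSO wells and 100% = buffer wells lacking importin beta; nearly all actives have a fitted effect of over 15% in size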
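Inhibition scored from the CFP 486 nm/YFP 530 nm FRET ratio 45 min after adding 0.125 microM importin beta to 50 nM Rango biosensor preincubated 5 min with compound (room temperature, PBS with DTT, Tween-20, BSA). No-importin wells as positive control.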
Tb PFK inh: T. brucei PFK enzyme inhibition | actives 0.17% (n = 330,000) | T. brucei PFK, ADP-Glo luminescence | Potency, µM (titrated, usually from 57.5 µM), without a hit: at the top dose activity, negative = inhibition, actives largely listed as inhibitors; active = well fitted curve in the direction sought with a large enough effect; inconclusive = small, poorly fitted or top-dose-only effect, or another doubt; inactive = no such curve, though single readings can be large; an effect the other way counts as inactive or inconclusive;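 also: 0% = uninhibited 1x PFK enzyme wells and -100% = no-enzyme wells; nearly all actives have a fitted effect of over 60% in size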
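In TEA buffer at pH 8.0 with 5 mM MgCl2, enzyme (1.25 nM) converted F6P (0.5 mM) and ATP (0.1 mM) for 45 min at room temperature. ADP product was read by luciferase luminescence.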
Rango release inh: prevents RanGTP from dissociating the Rango-importin beta complex | Biochemical FRET Rango-importin beta, RanGTP-induced dissociation | Potency, µM (doses to about 46.1 µM), for the others: at the highest dose activity change, negative = inhibition | O95149+P62826 | actives 0.071% (n = 340,000); also: % of control where 0% means no effect; nearly all actives have a fitted effect of over 45% in size
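Compounds sat 5 min at room temperature with 0.1 uM Rango biosensor plus 0.25 uM importin beta, then FRET pre-read. RanGTP-RCC1 (0.6 uM Ran, 2mM GTP, 0.2 uM RCC1) added for 45 min, and the CFP/YFP post-read measured blocked complex dissociation.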
KinaseGlo FLuc: blocks Kinase-Glo luciferase, a counter-screen artifact; AID 1379; Potency, µM (top dose mostly 38.3 µM), for the others: at the highest dose activity change, negative = inhibition, actives largely listed as inhibitors; Q27757; actives 0.28% (n = 200,000); Kinase-Glo luciferase, ATP luminescence, 8 min; active = well fitted curve in the direction sought with a large enough effect; inconclusive = small, poorly fitted or top-dose-only effect, or another doubt; inactive = no such curve, though single readings can be large; an effect the other way counts as inactive or inconclusive; also: % is scaled to controls: 0 for no effect and ±100 for the full control effect; nearly all actives have a fitted effect of over 60% in size
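Luminescence was the read-out, taken after 8-minute incubation at ambient temperature. Luciferase turned over luciferin with 10 uM ATP in imidazole pH 7.2 buffer containing KCl, MgCl2, Tween 20 and BSA.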
LMNA splice mod: modulators of lamin A splicing; Potency, µM (titrated, usually from 46.1 µM), for inactives: at the top dose ratio change, negative = inhibition, usual class: inhibitors; HeLa LMNA splicing GFP/RFP minigene ratio, 48 h; actives 0.01% (n = 200,000); active = well fitted inhibition curve with a large enough effect in the signal ratio, with a control signal flat, not every such curve was filed as active; inconclusive = small, poorly fitted or top-dose-only effect, or effect the other way, or a change in a side signal; the % refers to the signal ratio; also: % is scaled to controls: 0 for no effect and ±100 for the full control effect
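S3 HeLa stable clones carrying a lamin A-EGFP splicing minigene plus DsRed2 were seeded at 600 cells/well in Opti-MEM with 2% FBS, pin-dosed and incubated 48 h at 37°C. Acumen cytometry (488 nm) gave the GFP/RFP total-intensity ratio.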
Chronic BCR inh: inhibitors of chronic active B-cell receptor signaling | ABC-DLBCL IkBa-CBG/CBR reporter, luminescence ratio, 4 h | Potency, µM (titrated, usually from 46.1 µM), inactives show at the highest dose activity change, negative = inhibition, actives largely listed as inhibitors | actives 0.05% (n = 340,000) | AID 493014; active = well fitted inhibition curve with a large enough effect in the signal ratio, with a control signal flat, not every such curve was filed as active; inconclusive = small, poorly fitted or top-dose-only effect, or effect the other way, or a change in a side signal; the % refers to the signal ratio;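 also: plate controls were basal doxycycline-induced cells for no effect and cells given 10 µM MG132 for full effect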
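Compounds up to 46 uM were incubated four hours with TMD8 cells whose green CBG68 luciferase is fused to IkappaBalpha; red CBR luminescence normalised the signal, and concentration-effect curves were fitted to fusion, red and ratio data.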
* hit, by the source's call; ? = inconclusive; nt = no result; [ ] = remark or other dose. Unless noted, calls follow the shape of the full dose curve. Potency is read from the fitted curve at half-maximal effect.

No.	SMILES	Tb PFK inh	Chronic BCR inh	Rango release inh	Rango complex inh	LMNA splice mod	KinaseGlo FLuc
1	CCC(C)Sc1cc(-c2nc3ccc(C)cn3c2NCc2ccccc2)ccc1OC (stereo not drawn)	nt	nt	15µM*	?	nt	nt
2	COc1ccc(-c2cc(-c3nc4ccccn4c3NCc3ccccc3)ccc2OC)cc1	6%	?	26µM*	?	nt	nt
3	CCCCNc1c(-c2ccc(SC3CCCCC3)c(OC)c2)nc2ccc(C)cn12	8%	6%	7.3µM*	?	nt	nt
4	CCC(C)Sc1ccc(-c2nc3ccc(C)cn3c2NCc2ccccc2)cc1OC (stereo not drawn)	0%	?	?	?	nt	nt
5	O=S(=O)(N/N=C/c1ccc(F)cc1)c1ccccc1	1%	6%	-13%	7%	nt	2%
6	COc1ccc(C2N=C(c3ccccc3)NO2)cc1OC (stereo not drawn)	0%	-22%	1%	4%	nt	nt
7	O=C(/C=C/c1ccc2c(c1)OCO2)c1cccs1	nt	nt	nt	nt	nt	8.9µM*
8	O=C(/C=C/c1ccc2c(c1)OCO2)c1ccc[nH]1	2%	?	?	?	?	-18%
9	Cc1ccc(S(=O)(=O)N2CCOCC2)cc1NC(=O)COc1ccc(C(=O)c2ccccc2)cc1	-4%	-12%	?	1%	nt	nt
10	O=C(O)c1cc(/C=C/c2ccc(N3CCOCC3)cc2)nc2ccccc12	1%	0%	?	?	-5%[46 µM]	11µM*
11	COC(=O)CC1C2(C)CC34OC5(C)O[C@@]6(C7/C(=C(/O)C(C)C)C(=O)OC(c8ccoc8)[C@]7(C)C(OC(C)=O)C(OC(C)=O)[C@]6(O5)[C@@]13C)C(OC(C)=O)[C@]4(O)C2OC(=O)C(C)C (stereo partly drawn)	nt	nt	nt	nt	nt	-3%
12	CC(=O)c1ccc(-c2nc3ccccc3n2C)o1	-12%	?	-9%	1%	-6%	?
13	Cc1ccc(-c2nc3ccccc3n2C)o1	-18%	-4%	-9%	-1%	?	7.9µM*
14	CN(C)c1ccc(-c2nc3ccccc3n2C)cc1	?	?	-2%	1%	?	10µM*
15	Cn1c(-c2ccc(Br)o2)nc2ccccc21	-19%	?	11%	5%	1%	10µM*
16	Cc1ccccc1NN=Nc1nc2c([nH]1)c(=O)n(C)c(=O)n2C	-3%	-1%	7%	2%	-3%	-5%
17	COc1ccc(CN2CSC(=S)N(Cc3ccc(OC)cc3)C2)cc1	-4%	16µM*	0%	-1%	?	nt
18	CCc1ccc(C2=NN(S(C)(=O)=O)C(c3cccs3)C2)cc1 (stereo not drawn)	-5%	16%	-24%	?	?	13µM*
19	Nc1ccccc1-c1n[nH]c(=S)s1	-5%	-8%	15µM*	?	-24%[46 µM]	6%
20	O=C(Nc1ccc(S(=O)(=O)Nc2ncccn2)cc1)c1cnc(Cl)c(Cl)c1	11%	1%	0%	-2%	nt	4%

Single entries from the list:
Rango release inh with compound 12 : -9%
Tb PFK inh with compound 13 : -18%
Rango complex inh with compound 9 : 1%

The results go on.
No.	SMILES	Tb PFK inh	Chronic BCR inh	Rango release inh	Rango complex inh	LMNA splice mod	KinaseGlo FLuc
21	N#Cc1cccc(C(=O)Nc2ccc(S(=O)(=O)Nc3nccs3)cc2)c1	-6%	0%	9.2µM*	?	nt	nt
22	O=C(Nc1ccc(S(=O)(=O)Nc2nccs2)cc1)c1cnc(Cl)c(Cl)c1	0%	?	10µM*[inhibitor]	?	nt	nt
23	CCCSc1cc(NCCOC(=O)CCC)c([N+](=O)[O-])c2nonc12	0%	-26%	-14%	?	?	4%
24	CCCC(=O)OCCNc1cc(Sc2nccn2C)c2nonc2c1[N+](=O)[O-]	?	2.9µM*	-7%	?	-19%	1%
25	CCC(=O)OCCNc1cc(Sc2nc3ccccc3s2)c2nonc2c1[N+](=O)[O-]	2.7µM*	-13%	-7%	?	1%	-4%
26	O=C(/C=C\Nc1ccccc1Br)c1ccc2c(c1)OCO2	-5%	?	-12%	?	-8%[46 µM]	10µM*
27	COc1ccc(C(=O)Nc2cc3c4c(c2)C(C)C(=O)N4CCC3)c(OC)c1 (stereo not drawn)	1%	-10%	-18%	3%	nt	nt
28	CC1C(=O)N2CCCc3cc(NC(=O)c4ccccc4Br)cc1c32 (stereo not drawn)	-2%	23µM*	0%	2%	nt	nt
29	CC(C)c1ccc(NC(=O)C2CC(=O)N(C(C)C)C2)cc1 (stereo not drawn)	5%	1%	18%	4.1µM*	6%	4%
30	CCCOc1ccc2cc(-c3ccccn3)c(=O)oc2c1	-15%	?	?	?	-14%	13µM*
31	CCOc1ccc(CNC(=O)C2CCN(S(=O)(=O)c3c(C)noc3/C=C/c3ccc(C)cc3)CC2)cc1OC	nt	nt	nt	nt	11%[46 µM]	nt
32	CC(=O)c1cc2c(C)c(C(=O)c3ccccc3)oc2cc1O	2%	?	?	6.5µM*	-2%	-1%
33	COc1ccc(NC(=O)CNc2ccccc2C(C)=O)cc1S(=O)(=O)N1CCOCC1	14%	-7%	-18%	-6%	nt	nt
34	Cc1nc(SCC(=O)Nc2nccs2)c(C#N)c(C)c1C	0%	?	26µM*	?	nt	nt
35	CC(C)=C1C2CCC1C1C(=O)N(NC(=O)COc3ccc(C(C)(C)C)cc3)C(=O)C21 (stereo not drawn)	0%	-1%	0%	-3%	?	19%
36	Cc1ccccc1Cn1cc(CCC(=O)N2CCOCC2)c2ccccc21	1%	-8%	5%	?	nt	nt
37	COc1ccc(C(=O)O/N=C2\C(=O)N(C)c3ccccc32)cc1	nt	nt	-10%	2%	nt	nt
38	COc1ccc(C(=O)N=c2nc3ccccn3s2)cc1	-13%	?	-5%	-3%	-2%	7.9µM*
39	O=C(Nc1nc2ccccc2[nH]1)c1ccc(Cl)cc1	-5%	?	-11%	3%	nt	nt
40	O=C(Nc1nc2ccccc2[nH]1)c1ccccc1	-3%	?	1%	0%	-6%	11µM*

Whole records, looked up by structure.
`Cc1nc(SCC(=O)Nc2nccs2)c(C#N)c(C)c1C` in the list: Tb PFK inh = 0%; Chronic BCR inh = ?; Rango release inh = 26µM*; Rango complex inh = ?; LMNA splice mod = nt; KinaseGlo FLuc = nt
`CC(C)c1ccc(NC(=O)C2CC(=O)N(C(C)C)C2)cc1` (stereo not drawn) in the list: Tb PFK inh = 5%; Chronic BCR inh = 1%; Rango release inh = 18%; Rango complex inh = 4.1µM*; LMNA splice mod = 6%; KinaseGlo FLuc = 4%

(listing goes on)
No.	SMILES	Tb PFK inh	Chronic BCR inh	Rango release inh	Rango complex inh	LMNA splice mod	KinaseGlo FLuc
41	COc1cccc(/C=C(\C#N)c2nc3ccc(C)cc3[nH]2)c1OCC(=O)O	-11%	11%	16µM*	?	nt	nt
42	Cc1cc(Cc2cc(C)c(O)c(CO)c2)cc(CO)c1O	nt	nt	9%	65µM*	nt	nt
43	O=C(COC(=O)C1=COCCO1)Nc1ccccc1OC(F)F	-1%	-2%	-8%	-5%	nt	-2%
44	COc1ccccc1OCCn1cc(/C=C(\C#N)C(=O)NCc2ccco2)c2ccccc21	3%	-13%	-10%	?	-7%	-2%
45	Cc1ccc(C)c(OCCn2cc(/C=C(\C#N)C(=O)NCc3ccco3)c3ccccc32)c1	5%	-8%	4.1µM*	?	-1%	-1%
46	COc1ccccc1N1C(=O)S/C(=C\c2cc(C)n(C)c2C)C1=O	-4%	-29%	18µM*	?	10%[46 µM]	1%

Entries from the list above with a thiophene ring, fused or not:
No.	SMILES	Tb PFK inh	Chronic BCR inh	Rango release inh	Rango complex inh	LMNA splice mod	KinaseGlo FLuc
7	O=C(/C=C/c1ccc2c(c1)OCO2)c1cccs1	nt	nt	nt	nt	nt	8.9µM*
18	CCc1ccc(C2=NN(S(C)(=O)=O)C(c3cccs3)C2)cc1 (stereo not drawn)	-5%	16%	-24%	?	?	13µM*

Screening data: PubChem, National Center for Advancing Translational Sciences (NCATS)
